Sampled rows, rich in hits. Any-hit rate of the full collection: about 1.3%.
SR-BI uptake up: enhances SR-BI lipid uptake from DiI-HDL; CHO ldlA[mSR-BI] cells, DiI-HDL uptake fluorescence, 3 h; 100 = double the neutral-control signal; 0.096% of 320,000 active; activation, % at 12.5 µM;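 active = mean replicate activation of at least 60% and every replicate at or above 60%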;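 note: 0% = median plate neutral-control signal and 100% = twice that signal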
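material = CHO ldlA[mSR-BI] cells | medium = Ham's F12 with 0.5% BSA, HEPES 25 mM, pH 7.4 | reagent = fluorescent DiI-HDL, 10 µg/mL final | compound dosing = single-point compound dose | incubation = 3 h, 37 °C | measured by = bottom-read fluorescence, 550/595 nm | measure = HDL uptake via cellular fluorescence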
SR-BI HDL uptake: mouse SR-BI HDL lipid transfer inhibition; ldlA[mSR-BI] CHO cells, DiI-HDL uptake fluorescence, 3 h; inhibition, % at 12.5 µM; 0.96% of 320,000 active; AID 488896;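 active = mean replicate inhibition of at least 70% and a set share of replicates each scoring 70 or more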;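 note: 0% = median of neutral control wells and 100% = median of positive control wells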
Yeast UUG start: yeast start codon fidelity modulation; activity score, % at 18.7 µM; actives 0.13% (n = 350,000); S. cerevisiae UUG-firefly luciferase reporter, luminescence/redox ratio; AID 602363;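 active means replicate mean at a twofold rise or more, about +100% in these data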;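 further: firefly luciferase made from a UUG start codon reports start codon fidelity; reporter light over untreated wells divided by growth signal over untreated wells; some hits fall short of that in this replicate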
GSIS activator: primary screen for activators of insulin secretion dependent on glucose, INS-1E cells, GLuc reporter luminescence | activation, % at 16.6 µM | INS-1E GLuc reporter insulin secretion, 2-3 h | AID 743287 | 0.61% of 370,000 active;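 active = lowest replicate activation of at least 40%, so every replicate reaches that level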;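 note: 0% = median of neutral control wells and 100% = median of IBMX positive control wells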
* = called active by the depositor; . = not tested or not shown.

SMILES | SR-BI uptake up | SR-BI HDL uptake | Yeast UUG start | GSIS activator
COC(=O)c1cc2c(c3c4cc(OC)ccc4n(S(=O)(=O)c4ccc(C)cc4)c13)C(=O)N(Cc1ccccc1)C2 | . | . | . | 10.7
Cc1ccccc1S(=O)(=O)NCC[C@H]1CC[C@H](NC(=O)C2CCC2)[C@H](CO)O1 | . | . | 25.1 | 8.8
CCCC(=O)OCCNc1cc(Sc2nc3ccccc3[nH]2)c2nonc2c1[N+](=O)[O-] | -20.2 | 20.2 | -11.0 | 75.6*
CCC(=O)OCCNc1cc(Sc2nccn2C)c2nonc2c1[N+](=O)[O-] | 25.4 | -25.4 | . | 111.4*
CCC(=O)OCCNc1cc(SCCC(=O)OC)c2nonc2c1[N+](=O)[O-] | 11.9 | -11.9 | . | -20.9
C[C@@H]1CN([C@@H](C)CO)C(=O)Cc2cc(NS(=O)(=O)c3ccc(Cl)cc3)ccc2O[C@@H]1CN(C)S(C)(=O)=O | . | . | 1.5 | 2.6
CN(Cc1ccc(OCC(O)CN(C)Cc2ccccc2)cc1)Cc1nccn1C (stereo unspecified) | . | . | -11.2 | 46.5*
COc1cccc(Nc2nc(C(N)CO)cs2)n1 (stereo unspecified) | . | . | -10.4 | 41.5*
COc1cccc(Nc2nc(C(N)Cc3ccccc3)cs2)n1 (stereo unspecified) | . | . | -23.6 | .
C[C@H](CO)N1C[C@H](C)[C@@H](CN(C)C(=O)CN(C)C)Oc2cc(C#CC(C)(C)O)ccc2S1(=O)=O | . | . | -6.3 | 14.7
CCOc1ccc(NC(=S)NNC(=S)Nc2cccc(C(F)(F)F)c2)cc1 | -93.3 | 93.3* | . | -15.4
C[C@@H]1CN([C@@H](C)CO)C(=O)Cc2cc(NC(=O)Cc3ccccc3)ccc2O[C@@H]1CN(C)C | . | . | -9.8 | 18.3
COc1ccc(Nc2nnc(-c3ccc(C)cc3)c3ccccc23)cc1C(=O)N1CCCCC1 | -81.1 | 81.1* | 0.3 | -6.8
COc1ccc(Nc2nnc(-c3ccccc3)c3ccccc23)cc1C(=O)N1CCCCC1 | -48.1 | 48.1 | -3.5 | -22.2
CCN(CC)C(=O)COc1ccc(-c2nnc(Nc3ccc(OC)c(C(=O)NC)c3)c3ccccc23)cc1 | -86.7 | 86.7* | . | .
COc1ccc(S(=O)(=O)Nc2ccc3c(c2)C(=O)N([C@H](C)CO)C[C@H](C)[C@H](CN(C)S(=O)(=O)c2ccc(OC)cc2)OCCCC[C@H](C)O3)cc1 | . | . | -1.1 | -15.6
C/C=C1\COC(C(=O)NCc2ccccc2)(C(F)(F)F)C=C1C=C(C)C (stereo unspecified) | -30.1 | 30.1 | -5.3 | 112.2*
Cc1ccc(S(=O)(=O)Nc2nc(C)cc(NN)n2)cc1 | . | . | . | 46.4*
Nc1ccc(C(=O)n2c3ccccc3c3ccccc32)cc1 | -90.8 | 90.8* | -6.6 | -27.1
O=C(N/N=C/c1cccn1-c1ccc([N+](=O)[O-])cc1)c1cccnc1 | -88.8 | 88.8* | -15.7 | 0.5
Cc1c(Br)c([N+](=O)[O-])nn1CC(=O)Nc1sc2c(c1C(=O)OC(C)C)CCCC2 | -59.5 | 59.5 | -6.3 | 46.0*
CC(C)(C)c1cc(CCC(=O)NNC(=S)NC(=O)c2ccccc2)cc(C(C)(C)C)c1O | -70.7 | 70.7* | . | .
O=C(NNC(=S)NC(=O)c1ccccc1[N+](=O)[O-])c1ccccc1[N+](=O)[O-] | 20.4 | -20.4 | -3.9 | -4.1
O=C(NC(=S)NNC(=O)c1ccccc1O)c1ccc([N+](=O)[O-])cc1 | -105.8 | 105.8* | -20.0 | -11.8
O=C(NC(=S)NNC(=O)c1ccccc1O)c1ccccc1 | -99.5 | 99.5* | -3.1 | -20.2

Another view of some results above:
| SMILES | SR-BI uptake up | SR-BI HDL uptake | Yeast UUG start | GSIS activator |
| --- | --- | --- | --- | --- |
| C[C@@H]1CN([C@@H](C)CO)C(=O)Cc2cc(NC(=O)Cc3ccccc3)ccc2O[C@@H]1CN(C)C | . | . | -9.8 | 18.3 |
| CCCC(=O)OCCNc1cc(Sc2nc3ccccc3[nH]2)c2nonc2c1[N+](=O)[O-] | -20.2 | 20.2 | -11.0 | 75.6* |
| O=C(NC(=S)NNC(=O)c1ccccc1O)c1ccc([N+](=O)[O-])cc1 | -105.8 | 105.8* | -20.0 | -11.8 |
| COC(=O)c1cc2c(c3c4cc(OC)ccc4n(S(=O)(=O)c4ccc(C)cc4)c13)C(=O)N(Cc1ccccc1)C2 | . | . | . | 10.7 |
| CC(C)(C)c1cc(CCC(=O)NNC(=S)NC(=O)c2ccccc2)cc(C(C)(C)C)c1O | -70.7 | 70.7* | . | . |
| CCN(CC)C(=O)COc1ccc(-c2nnc(Nc3ccc(OC)c(C(=O)NC)c3)c3ccccc23)cc1 | -86.7 | 86.7* | . | . |

More results follow:
SMILES | SR-BI uptake up | SR-BI HDL uptake | Yeast UUG start | GSIS activator
O=C(NNC(=S)NC(=O)c1ccccc1)c1ccc([N+](=O)[O-])cc1 | 5.9 | -5.9 | -18.8 | -9.1
O=C(NNC(=S)NC(=O)c1ccccc1[N+](=O)[O-])c1ccccc1O | -84.3 | 84.3* | . | -12.9
COc1ccc(NC(=O)N(C)C[C@H]2Oc3cc(C#CCN(C)C)ccc3S(=O)(=O)N([C@H](C)CO)C[C@H]2C)cc1 | . | . | 15.3 | -1.9
COc1ccc(CN(C)C[C@H]2OCCCC[C@H](C)Oc3ccc(NC(=O)Nc4ccc5c(c4)OCO5)cc3C(=O)N([C@@H](C)CO)C[C@H]2C)cc1 | . | . | 0.9 | -36.6
COc1ccc(NC(=O)Nc2ccc3c(c2)C(=O)N([C@@H](C)CO)C[C@@H](C)[C@@H](CN(C)S(=O)(=O)c2ccc(C)cc2)OCCCC[C@@H](C)O3)cc1 | . | . | -14.1 | 2.6
O=C(NNC(=O)c1ccccc1O)c1ccc(-c2ccc([N+](=O)[O-])cc2)o1 | -120.6 | 120.6* | . | -19.0
O=C(Nc1ccccc1)c1ccc(-c2ccc([N+](=O)[O-])cc2)o1 | . | . | . | 23.3
O=C(CCc1ccccc1)NNC(=O)c1cc(Cl)ccc1O | -115.4 | 115.4* | -13.4 | 2.3
O=C(NC(=S)NNC(=O)c1ccccc1O)c1cccs1 | -114.2 | 114.2* | -21.4 | 1.1
Cc1ccc(C(=O)NC(=S)NNC(=O)c2ccccc2O)cc1 | -112.1 | 112.1* | -19.5 | -17.8
COC(=O)C[C@H]1CC[C@H]2[C@@H](COc3ccc(NC(=O)NCc4ccccc4)cc3C(=O)N2C)O1 | . | . | . | 3.9
O=C(NC(=S)NNC(=O)c1ccccc1O)c1ccc(F)cc1 | -125.4 | 125.3* | -0.7 | -0.2
O=C(NNC(=O)c1cc(Cl)ccc1O)c1cccs1 | -89.4 | 89.4* | -15.4 | 11.2
O=C(NNC(=S)NC(=O)c1cccnc1)c1ccc(F)cc1 | -24.9 | 24.9 | -28.4 | -6.1
CC(C)c1cn(CC[C@H]2CC[C@H](NS(=O)(=O)Cc3ccccc3)[C@H](CO)O2)nn1 | . | . | -0.5 | -8.1
O=C(Nc1ccccc1)N1CCC(C(=O)N2CCN(c3ccccc3F)CC2)CC1 | -79.9 | 79.8* | 15.9 | 8.2
COc1ccccc1-c1cc(C(=O)Nc2sc3c(c2C#N)CCC(C)C3)c2ccccc2n1 (stereo unspecified) | -86.2 | 86.2* | -11.7 | .
O=C(O)COc1ccccc1/C=N/NC(=O)c1cc(-c2ccc(Cl)cc2)nc2ccccc12 | . | . | 1.5 | -17.8
O=C(N/N=C/c1ccccn1)c1cc(-c2ccc(Br)cc2)nc2ccccc12 | -75.9 | 75.9* | . | -5.4
O=C(N/N=C/c1ccccn1)c1cc(-c2ccc(Cl)cc2)nc2ccccc12 | -106.8 | 106.8* | -15.5 | -5.7
O=C(N/N=C/c1ccccc1OC(F)F)c1cc(-c2ccncc2)nc2ccccc12 | -89.8 | 89.8* | . | 10.1
O=C(O)COc1ccccc1/C=N/NC(=O)c1cc(-c2ccccc2)nc2ccccc12 | . | . | -9.9 | -15.2
C[C@@H]1CCCCO[C@@H](CN(C)C(=O)Nc2ccc3c(c2)OCO3)[C@H](C)CN([C@H](C)CO)C(=O)c2cc(NC(=O)C3CCCCC3)ccc2O1 | . | . | -2.9 | -22.9
COc1ccc(S(=O)(=O)N(C)C[C@@H]2Oc3ccc(NC(=O)CCCN(C)C)cc3C(=O)N([C@@H](C)CO)C[C@H]2C)cc1 | . | . | 11.5 | 4.3
COc1ccccc1-c1cc(C(=O)N/N=C/c2ccc(C)s2)c2ccccc2n1 | -77.1 | 77.1* | 4.4 | .
COc1ccc(-c2cc(C(=O)N/N=C/c3cc(OC)c(OC)cc3OC)c3ccccc3n2)cc1 | . | . | -16.2 | -1.2
Cc1ccc(-c2cc(C(=O)N/N=C\c3cnn(C)c3C)c3ccccc3n2)cc1C | -96.1 | 96.1* | -12.8 | .
COC(=O)C[C@@H]1CC[C@@H]2[C@H](COc3ccc(NC(=O)c4cscn4)cc3C(=O)N2C)O1 | . | . | 3.4 | 3.1

Screens deposited in PubChem BioAssay by Broad Institute.
